# PubChem BioAssay AID463115 (University of Pittsburgh Molecular Library Screening Center, 2010)
# Chains of the proteins cited; added tags and fusions are not shown.
# UniProt P09958, whole entry, looked up: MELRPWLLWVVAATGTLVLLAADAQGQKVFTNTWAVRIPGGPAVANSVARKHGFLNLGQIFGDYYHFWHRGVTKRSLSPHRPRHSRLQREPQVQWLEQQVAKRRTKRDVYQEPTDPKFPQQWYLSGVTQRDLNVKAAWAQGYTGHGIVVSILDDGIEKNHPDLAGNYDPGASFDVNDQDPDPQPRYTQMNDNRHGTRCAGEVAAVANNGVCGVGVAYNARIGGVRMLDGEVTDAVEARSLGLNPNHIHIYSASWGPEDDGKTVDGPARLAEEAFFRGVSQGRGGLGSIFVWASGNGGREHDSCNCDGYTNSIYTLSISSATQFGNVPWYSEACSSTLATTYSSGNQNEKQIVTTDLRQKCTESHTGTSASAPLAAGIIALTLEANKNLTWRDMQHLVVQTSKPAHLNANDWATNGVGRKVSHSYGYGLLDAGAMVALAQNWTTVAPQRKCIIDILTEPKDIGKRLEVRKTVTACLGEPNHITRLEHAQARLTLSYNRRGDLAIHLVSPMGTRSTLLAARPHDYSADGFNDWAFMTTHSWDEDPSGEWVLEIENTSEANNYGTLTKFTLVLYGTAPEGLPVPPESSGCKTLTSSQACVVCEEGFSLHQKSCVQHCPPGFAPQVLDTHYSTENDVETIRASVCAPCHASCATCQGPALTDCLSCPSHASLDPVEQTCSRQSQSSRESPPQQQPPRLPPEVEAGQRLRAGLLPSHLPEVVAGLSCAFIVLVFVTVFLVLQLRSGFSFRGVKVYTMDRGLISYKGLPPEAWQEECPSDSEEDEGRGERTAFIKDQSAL
# The entries are a selection whose mix differs from that of the whole data set. Active and inactive are the calls of the source. No stated cut-off is given here; in the data, active means inhibition above about 25%; inactive means the rest.
# Molecular target: Furin (Homo sapiens) (UniProt P09958)
# Test: human furin inhibitors, primary screen, biochemical, fluorescence intensity (AID 463115)
# Conditions: purified furin, fluorogenic substrate cleavage, active compounds read high
compound,measurement,setting,value
O=[N+]([O-])c1ncn(CCn2ncnc2[N+](=O)[O-])n1,inhibition,at 30 µM unless noted,inactive: -30.6%
CC(C)(C)C(=O)NC(Sc1ccncn1)C(Cl)(Cl)Cl (stereo unspecified),inhibition,at 30 µM unless noted,inactive: -16.8%
O=C(O)CNc1ccc([As](=O)(O)O)cc1,inhibition,at 30 µM unless noted,inactive: -19.8%
O=[N+]([O-])c1cccc(NC2=NCC(CBr)S2)c1 (stereo unspecified),inhibition,at 30 µM unless noted,inactive: -4.69%
O=C(Nc1cc([As](=O)(O)O)ccc1O)c1ccccc1,inhibition,at 30 µM unless noted,inactive: -14.6%
CCN(/C(=N/P(=O)(N1CCOCC1)N1CCOCC1)N1CCOCC1)c1ccc(OC)cc1,inhibition,at 30 µM unless noted,inactive: -26.1%
C[N+]1=C2C=CC=CC=C2SC12C([N+](=O)[O-])=CC([N+](=O)[O-])=C[C-]2[N+](=O)[O-] (stereo unspecified),inhibition,at 30 µM unless noted,inactive: -16.7%
Nc1ccc([As](=O)(O)c2ccc(N)cc2)cc1,inhibition,at 30 µM unless noted,inactive: -13.3%
CC1CCN(C(=O)Oc2c(Cl)cc(Cl)c3cccnc23)CC1,inhibition,at 30 µM unless noted,inactive: 0.208% [at 20 µM]
CN(C)C(=O)OCCc1n(C)cc[n+]1C,inhibition,at 30 µM unless noted,inactive: -19.9%
CC(C)=N/N=C(\N)N[N+](=O)[O-],inhibition,at 30 µM unless noted,inactive: -29.9%
COc1ccc(C2=NCC(CBr)S2)cc1 (stereo unspecified),inhibition,at 30 µM unless noted,inactive: -20.6%
O=[N+]([O-])c1cc([N+](=O)[O-])c(CCNc2ccccc2)c([N+](=O)[O-])c1,inhibition,at 30 µM unless noted,inactive: -18.2%
CCc1nc2c(n1)c1c(non1O)c1c2no[n+]1[O-],inhibition,at 30 µM unless noted,inactive: -10.3%
Cc1ccc(NP(=O)(Oc2ccccc2)Oc2ccccc2)nc1,inhibition,at 30 µM unless noted,inactive: -11.3%
CC(=O)N1C2C3N(C(C)=O)C1C1N(C(C)=O)C(C(N1C(C)=O)N3C(C)=O)N2C(C)=O,inhibition,at 30 µM unless noted,inactive: -21% [at 20 µM]
O=[N+]([O-])c1cccc2n[nH]nc12,inhibition,at 30 µM unless noted,inactive: 0.2% [at 20 µM]
Cc1c2non([O-])c-2c(C)[n+](=O)[n+]1[O-],inhibition,at 30 µM unless noted,inactive: -15.6%
O=C(NC(Sc1ccncn1)C(Cl)(Cl)Cl)c1ccccc1 (stereo unspecified),inhibition,at 30 µM unless noted,inactive: -6.83%
Oc1ccccc1CNc1ccccn1,inhibition,at 30 µM unless noted,inactive: -14.3% [at 20 µM]
CC(C)CC(=O)NC(Sc1ccc(Cl)cc1)C(Cl)(Cl)Cl (stereo unspecified),inhibition,at 30 µM unless noted,inactive: -17.5% [at 20 µM]
Nc1cc(N)c2nonc2c1[N+](=O)[O-],inhibition,at 30 µM unless noted,inactive: -3.76%
Cc1ccc(N/C(=N/P(=O)(N2CCOCC2)N2CCOCC2)N2CCOCC2)cc1,inhibition,at 30 µM unless noted,inactive: -15%
NC(=O)c1cc([N+](=O)[O-])cc([N+](=O)[O-])c1N,inhibition,at 30 µM unless noted,inactive: -5.71%
Clc1ccc(Cl)c(NC2=NCC(CBr)S2)c1 (stereo unspecified),inhibition,at 30 µM unless noted,inactive: -29.9%
CN1CCCC(OC(=O)C(c2ccccc2)c2ccccc2)C1 (stereo unspecified),inhibition,at 30 µM unless noted,inactive: -26.9% [at 20 µM]
Cc1ccc(OP(=O)(Nc2nccs2)Oc2ccc(C)cc2)cc1,inhibition,at 30 µM unless noted,inactive: -28.5%
COc1ccccc1OP(=O)(Nc1ccc(C)cn1)Oc1ccccc1OC,inhibition,at 30 µM unless noted,inactive: -24.9%
Nc1cccc2ccc([As](=O)(O)O)cc12,inhibition,at 30 µM unless noted,inactive: -27.3%
CCN(N=Nc1nonc1N)c1nonc1N,inhibition,at 30 µM unless noted,inactive: -22.1%
O=P(Nc1nc2ccc(Cl)cc2s1)(c1ccccc1)c1ccccc1,inhibition,at 30 µM unless noted,inactive: -32.3%
O=C(O)c1ccccc1[As](=O)(O)O,inhibition,at 30 µM unless noted,inactive: -6.7%
CC(=O)Nc1ccc([As](=O)(O)O)cc1,inhibition,at 30 µM unless noted,inactive: -29.6%
Cc1ccc(NP(=O)(Oc2ccccc2F)Oc2ccccc2F)nc1,inhibition,at 30 µM unless noted,inactive: 2.51%
CCOP(=O)(Nc1ccccc1)OCC,inhibition,at 20 µM,inactive: -14%
same,inhibition,at 30 µM,inactive: -15.3%
Cc1cc(SC(NC(=O)c2ccc(F)cc2)C(Cl)(Cl)Cl)ncn1 (stereo unspecified),inhibition,at 30 µM unless noted,inactive: -17.8%
CCC(=O)N1C2C3N(C(=O)CC)C1C1N(C(=O)CC)C(C(N1C(=O)CC)N3C(=O)CC)N2C(=O)CC,inhibition,at 30 µM unless noted,inactive: -16% [at 20 µM]
CC(=O)NC(SC(=S)N(CC(C)C)CC(C)C)C(Cl)(Cl)Cl (stereo unspecified),inhibition,at 30 µM unless noted,inactive: -4.85%
Cc1ccc(OP(=O)(Nc2ccccn2)Oc2ccc(C)cc2)cc1,inhibition,at 30 µM unless noted,inactive: -16.5%
COC(=O)c1cc2c(s1)N=C(c1ccccc1)N(C)P2(=O)N1CCOCC1 (stereo unspecified),inhibition,at 30 µM unless noted,inactive: 1.02%
CN(C)C(=O)Oc1noc2ccccc12,inhibition,at 30 µM unless noted,inactive: -22.9%
O=c1c2cc([N+](=O)[O-])ccc2[nH]c2c([N+](=O)[O-])cc([N+](=O)[O-])cc12,inhibition,at 30 µM unless noted,inactive: -30%
Cc1ccccc1OP(=O)(Nc1ccccn1)Oc1ccccc1C,inhibition,at 30 µM unless noted,inactive: -23.8%
Cc1ccc(NP(=O)(Oc2cccc(C)c2)Oc2cccc(C)c2)nc1,inhibition,at 30 µM unless noted,inactive: -10.2%
CCOC(=O)NC(Sc1ccccc1)C(Cl)(Cl)Cl (stereo unspecified),inhibition,at 30 µM unless noted,inactive: -8.09% [at 20 µM]
c1ccc(-c2nn[nH]n2)c(-c2nn[nH]n2)c1,inhibition,at 30 µM unless noted,inactive: -27.5%
O=C(NC1CCS(=O)(=O)C1)NP(=S)(Oc1ccccc1)Oc1ccccc1 (stereo unspecified),inhibition,at 30 µM unless noted,inactive: -21.4%
CCNC(=S)/N=C(\N)N[N+](=O)[O-],inhibition,at 30 µM unless noted,inactive: -20.5%
C[C@@H]1C=CCP(=O)(Oc2ccccc2)O1 (stereo partly specified),inhibition,at 30 µM unless noted,inactive: -30.4%
C[C@H]1OP(=O)(Oc2ccccc2)C[C@@H]2O[C@@H]21 (stereo partly specified),inhibition,at 30 µM unless noted,inactive: -22.6%
CC(=O)Nc1ccc(Oc2c([N+](=O)[O-])cc([N+](=O)[O-])cc2[N+](=O)[O-])cc1,inhibition,at 30 µM unless noted,inactive: -5.35%
CC(=O)Nc1ccc([As](=O)(O)O)c(O)c1,inhibition,at 30 µM unless noted,inactive: -10.1%
CCOc1ccc(C2=NCC(CBr)S2)cc1 (stereo unspecified),inhibition,at 30 µM unless noted,inactive: -13.9%
O=P1(Nc2nc3ccc(Cl)cc3s2)COc2ccccc2O1 (stereo unspecified),inhibition,at 30 µM unless noted,inactive: -19.8%
CC(C)(C)C(=O)NC(Sc1ccccc1)C(Cl)(Cl)Cl (stereo unspecified),inhibition,at 30 µM unless noted,inactive: -11%
O=P(Nc1nccs1)(c1ccccc1)c1ccccc1,inhibition,at 30 µM unless noted,inactive: -10.7% [at 20 µM]
CC(C)C(=O)NC(Sc1ccccc1)C(Cl)(Cl)Cl (stereo unspecified),inhibition,at 30 µM unless noted,inactive: -31.7%
c1nnnn1CCn1cnnn1,inhibition,at 30 µM unless noted,inactive: -25.3%
O=[As](O)(c1ccccc1)c1ccc(O)cc1,inhibition,at 30 µM unless noted,inactive: -21.7%
CC(=O)NC(SC(=S)N(C)C)C(Cl)(Cl)Cl (stereo unspecified),inhibition,at 30 µM unless noted,inactive: -30.6%
O=[N+]([O-])c1ncn(CCn2cnc([N+](=O)[O-])n2)n1,inhibition,at 30 µM unless noted,inactive: -16.5%
O=C(OC1CN2CCC1CC2)c1cccc(Cl)c1 (stereo unspecified),inhibition,at 30 µM unless noted,inactive: -10.6%
Nc1ccc([As](=O)(O)c2ccc([N+](=O)[O-])cc2)cc1,inhibition,at 30 µM unless noted,inactive: -12.1%
C(Cc1nn[nH]n1)Cc1nn[nH]n1,inhibition,at 30 µM unless noted,inactive: -23.6%
O=P(Nc1ccccn1)(c1ccc(Br)cc1)c1ccc(Br)cc1,inhibition,at 30 µM unless noted,inactive: -25.4%
C[C@H]1OP(=O)(Oc2ccccc2)[C@H](O)[C@H](O)[C@H]1N=[N+]=[N-] (stereo partly specified),inhibition,at 30 µM unless noted,inactive: -23.3%
O=P(Nc1nc2ccccc2s1)(c1ccccc1)c1ccccc1,inhibition,at 30 µM unless noted,inactive: -13.3%
O=P1(Nc2ncccn2)COc2ccccc2OC1,inhibition,at 30 µM unless noted,inactive: -21.5%
Nc1cccc([As](=O)(O)c2ccccc2)c1,inhibition,at 30 µM unless noted,inactive: -25.8%
O=P1(Nc2ccc(Br)cn2)COc2ccccc2OC1,inhibition,at 30 µM unless noted,inactive: -25.7%
Cc1ccc(OCC(=O)OC2CN3CCC2CC3)cc1 (stereo unspecified),inhibition,at 30 µM unless noted,inactive: -13.1% [at 20 µM]
O=[As](O)(c1cccs1)c1cccs1,inhibition,at 30 µM unless noted,inactive: -28.4%
CC1CCC(C(C)C)C(OP(=O)(Nc2ccccn2)c2ccccc2)C1 (stereo unspecified),inhibition,at 30 µM unless noted,inactive: -23.5%
Cc1nn(-c2ccccc2)c2c1P(=O)(N1CCOCC1)N(C)C(c1ccccc1)=N2 (stereo unspecified),inhibition,at 30 µM unless noted,inactive: -19.5% [at 20 µM]
CN(C)C1(CNC(=O)c2ccc(S(C)(=O)=O)cc2)CCCCC1,inhibition,at 30 µM unless noted,inactive: -25%
O=C(/C=C/c1ccccc1)OC1CN2CCC1CC2 (stereo unspecified),inhibition,at 30 µM unless noted,inactive: -13.7%
CC(C)/C=N\N=C(\N)N[N+](=O)[O-],inhibition,at 30 µM unless noted,inactive: -21.5%
CC1(CBr)Cn2c(nc3ccccc3c2=O)S1 (stereo unspecified),inhibition,at 30 µM unless noted,inactive: -13.4% [at 20 µM]
O=[As](O)(c1ccccc1Br)c1ccccc1Br,inhibition,at 30 µM unless noted,inactive: -14.4%
O=P1(Nc2ccccn2)COc2ccccc2OC1,inhibition,at 30 µM unless noted,inactive: -17%
CCOP(=O)(Nc1ccc(C)cn1)OCC,inhibition,at 30 µM unless noted,inactive: -27.4%
CC(C)(C)C(=O)NC(Sc1ncccn1)C(Cl)(Cl)Cl (stereo unspecified),inhibition,at 30 µM unless noted,inactive: -14.6%
Clc1n[nH]nc1-c1nn[nH][15n]1,inhibition,at 30 µM unless noted,inactive: -18.3%
Cc1ccc(NCCc2c([N+](=O)[O-])cc([N+](=O)[O-])cc2[N+](=O)[O-])cc1,inhibition,at 30 µM unless noted,inactive: -17.2%
Nc1cccc2c([As](=O)(O)O)cccc12,inhibition,at 30 µM unless noted,inactive: -24.8%
CCCOP(=S)(Nc1nc(N)cc(=O)[nH]1)OCCC,inhibition,at 30 µM unless noted,inactive: -12.6%
CCOP(=O)(Nc1cccc2ccccc12)OCC,inhibition,at 30 µM unless noted,inactive: -3.31%
COc1cc(C2NCCC3(OCCO3)C2(C)C)cc(OC)c1OC (stereo unspecified),inhibition,at 30 µM unless noted,inactive: 7.54%
O=C(OC1CN2CCC1CC2)c1ccc(Cl)cc1 (stereo unspecified),inhibition,at 30 µM unless noted,inactive: -9.76%
COc1cc(C(=O)NCC2(N3CCOCC3)CCCCC2)cc(Cl)c1OC(C)C,inhibition,at 30 µM unless noted,inactive: -34.3%
O=[As](O)(O)c1cccnc1,inhibition,at 30 µM unless noted,inactive: -20%
O=[As](O)(c1cccc(O)c1)c1cccc(O)c1,inhibition,at 30 µM unless noted,inactive: -10.2%
Cc1cccc(OCC(=O)OC2CN3CCC2CC3)c1 (stereo unspecified),inhibition,at 30 µM unless noted,inactive: -10.6% [at 20 µM]
NC(=O)Nc1ccc([As](=O)(O)O)cc1,inhibition,at 30 µM unless noted,inactive: -33.8%
CCOP1(=S)c2c(C)nn(CCC#N)c2N=C(c2ccc(F)cc2)N1C (stereo unspecified),inhibition,at 30 µM unless noted,inactive: -20.3%
CN(C(=O)Cc1ccccc1)[C@@H]1CC[C@]2(CCCO2)C[C@H]1N1CCCC1,inhibition,at 30 µM unless noted,inactive: -27.2%
O=[N+]([O-])c1ccc2c(c1)nnn2O,inhibition,at 30 µM unless noted,inactive: -7.05% [at 20 µM]
O=P(Nc1nccs1)(c1ccccc1)c1nc2ccccc2s1 (stereo unspecified),inhibition,at 30 µM unless noted,inactive: -20.6%
O=P(Nc1nccs1)(Oc1ccccc1)Oc1ccccc1,inhibition,at 30 µM unless noted,inactive: -22.6%
CCOP1(=S)c2c(C)nn(CCC#N)c2N=C(c2ccccc2F)N1C (stereo unspecified),inhibition,at 30 µM unless noted,inactive: -18.2% [at 20 µM]
